Consider three compounds from patent publication US20230172895A1, “METHODS OF TREATING OR PREVENTING ORGANOPHOSPHORUS POISONING” (published 2023).

Chains of the proteins cited; added tags and fusions are not shown. Lines headed by an entry give the natural chain unless they say otherwise; changes in a name come on top.
UniProt P22303: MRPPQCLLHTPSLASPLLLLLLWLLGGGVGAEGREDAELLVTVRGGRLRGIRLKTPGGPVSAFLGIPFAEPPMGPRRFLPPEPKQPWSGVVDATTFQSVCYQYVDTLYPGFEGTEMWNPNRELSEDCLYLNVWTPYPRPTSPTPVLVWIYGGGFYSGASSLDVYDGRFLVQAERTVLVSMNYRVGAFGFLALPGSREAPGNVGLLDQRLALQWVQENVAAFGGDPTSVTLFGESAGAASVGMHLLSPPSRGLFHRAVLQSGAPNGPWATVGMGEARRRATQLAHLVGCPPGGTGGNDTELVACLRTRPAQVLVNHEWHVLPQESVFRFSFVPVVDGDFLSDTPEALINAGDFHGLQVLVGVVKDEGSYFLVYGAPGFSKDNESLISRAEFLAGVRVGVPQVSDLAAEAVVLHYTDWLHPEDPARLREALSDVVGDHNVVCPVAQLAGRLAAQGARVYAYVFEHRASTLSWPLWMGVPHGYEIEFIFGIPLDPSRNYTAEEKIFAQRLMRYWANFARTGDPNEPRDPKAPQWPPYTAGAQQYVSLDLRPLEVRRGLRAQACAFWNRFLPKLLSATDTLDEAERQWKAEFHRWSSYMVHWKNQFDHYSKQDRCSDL
UniProt P06276: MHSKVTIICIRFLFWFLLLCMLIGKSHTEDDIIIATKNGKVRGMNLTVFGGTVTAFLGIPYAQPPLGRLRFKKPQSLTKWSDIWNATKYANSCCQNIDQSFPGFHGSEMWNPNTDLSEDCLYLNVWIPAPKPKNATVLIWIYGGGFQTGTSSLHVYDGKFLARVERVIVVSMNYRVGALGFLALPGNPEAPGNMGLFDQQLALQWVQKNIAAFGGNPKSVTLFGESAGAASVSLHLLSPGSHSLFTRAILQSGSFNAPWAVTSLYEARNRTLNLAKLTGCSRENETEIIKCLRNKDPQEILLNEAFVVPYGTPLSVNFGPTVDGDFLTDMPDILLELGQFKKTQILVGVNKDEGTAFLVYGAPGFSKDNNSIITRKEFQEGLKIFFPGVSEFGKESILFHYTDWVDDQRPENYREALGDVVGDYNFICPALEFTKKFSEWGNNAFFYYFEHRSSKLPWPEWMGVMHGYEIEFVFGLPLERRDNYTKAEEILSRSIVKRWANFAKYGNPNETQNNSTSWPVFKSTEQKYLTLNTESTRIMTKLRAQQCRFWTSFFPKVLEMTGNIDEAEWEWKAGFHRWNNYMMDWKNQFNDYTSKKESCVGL

For data set [1] the following is noted: Alzheimer's patients; 24 or 32 mg per day or 16 mg per day; cited from earlier work.
The conditions of data set [2]: cited from earlier work.
The next data set has as its target CSF AChE (Homo sapiens, UniProt P22303). The experiment in a line: Estimated CSF AChE inhibition from CSF rivastigmine (Michaelis-Menten relation, FIG. 4).
The target in the next data set is AChE in CSF (Homo sapiens, UniProt P22303). Particulars: oral; rivastigmine average 8.8 mg/d over 13 weeks, galantamine average 20.8 mg/d; cited from earlier work.
A short description of data set [3]: Safety and adverse events in the single-dose crossover study.
The target of another data set is BuChE in CSF (Homo sapiens, UniProt P06276). Particulars: oral; rivastigmine average 8.8 mg/d over 13 weeks, galantamine average 20.8 mg/d; cited from earlier work.
Data set [4] is described as follows: Rivastigmine plasma to CSF partition. Conditions: expected at intranasal plasma Cmax of at least 7.5 ng/ml (7.5×0.398).
The nature of data set [5]: Single-dose crossover pharmacokinetic study of rivastigmine nasal spray and Exelon oral capsule; plasma rivastigmine and NAP226-90 by LC/MS/MS. Conditions: for mean Cmax: mean ±SD.
A further data set concerns the target plasma BuChE (Homo sapiens, UniProt P06276). In words: Estimated plasma BuChE inhibition from plasma rivastigmine (Michaelis-Menten relation, FIG. 3).
For data set [6] the following is noted: Gobburu et al., 2001; cited from earlier work.
In a further data set the target is AChE (Homo sapiens, UniProt P22303). Particulars: in humans, Cutler et al., 1998, Polinsky; cited from earlier work.
Setting [7] is: intranasal AUC of about 40 ng.h/mL over about 12 hours.
Setting [8] is: intranasal administration, 4 mg single dose.
Where [9] appears, read: mean, 3 mg oral capsule (Exelon), n=16.
Where [10] appears, read: mean, 4 mg rivastigmine nasal spray, n=16.
[11] abbreviates: min-max, 3 mg oral capsule (Exelon), n=16.
The mark [12] stands for this setting: min-max, 4 mg rivastigmine nasal spray, n=16.
Setting [13] is: oral route, 3 mg Exelon capsule.

As usually defined, the half-life is the time in which the quantity being followed falls by half.

Marks after values point to notes of the source that are not given here.

Consider `COc1ccc2c3c1O[C@H]1C[C@@H](O)C=C[C@@]31CCN(C)C2`, for which the adverse side effects entry in [1] was “adverse side effects, such as nausea, vomiting and diarrhea”.
For the compound `C[C@@H](c1cccc(O)c1)N(C)C`, in data set [2] (oral administration of rivastigmine, Kurz et al., (2009)), the “NAP226-90 to rivastigmine plasma ratio” value is given as “greater than one”. Moreover, the “NAP226-90 to rivastigmine ratio previously measured” value in [2] (transdermal patch) was 0.67.
For rivastigmine, the “maximal inhibition of CSF AChE” value at CSF AChE (expected at 3 ng/mL CSF rivastigmine Cmax, from FIG. 4 (Cutler et al., 1998 data)) is “about 50%”. The “average CSF AChE inhibition” value at CSF AChE (setting [7]) is on record as “about 35%”. In addition, the “decreased activity of AChE in CSF” value at AChE in CSF was 42.6%. In [3] (setting [8]), the nausea came out at 6% and the vomiting or diarrhoea entry was “no vomiting or diarrhoea”. In data set [3] (oral dosing, 3 mg, 34 minutes after dosing, same participant did not vomit after intranasal dosing), the vomiting entry was “One participant vomited”. Also, the “participants with treatment-emergent adverse events” value in data set [3] (oral treatment, 3 mg single dose, n=16, one mild nausea, two mild dizziness) is “three”. Besides, the “decreased activity of BuChE in CSF” value on BuChE in CSF was 45.6%. The “CSF rivastigmine Cmax” value in data set [4] was “about 3 ng/mL”. Besides, the “mean rivastigmine FI” value in data set [5] (after intranasal administration, p<0.005 vs oral) is 5.3. Moreover, the “mean rivastigmine FI” value in data set [5] (after oral administration) is on record as 3.8. Also, in data set [5] (dose-adjusted intranasal vs oral), the “ratio of geometric mean rivastigmine AUC0-∞ intranasal (3 mg equivalent) / oral” value turned out to be 1.9. For the same compound, the “AUC (0, ∞)OR [geometric mean]” value in data set [5] (geometric mean, 3 mg oral capsule (Exelon), n=16) was 13.2 ng·h/mL. In data set [5] (geometric mean, 4 mg rivastigmine nasal spray, n=16), the “AUC (0, ∞)NS [geometric mean]” value worked out at 33.9 ng·h/mL. In addition, the “Cmax, OR [geometric mean]” value in data set [5] (geometric mean, plasma, 3 mg oral capsule (Exelon), n=16) came to 6.0 ng/mL. For the same compound, in data set [5] (geometric mean, plasma, 4 mg rivastigmine nasal spray, n=16), the “Cmax, NS [geometric mean]” value is 11.1 ng/mL. Also, in [5] (intranasal formulation, 4 mg), the “mean (±SD) Tmax” value came to 42 ± 18 min and the “mean Cmax” value was found to be 13.8 ± 10.8 ng/mL. This compound also showed a geometric mean rivastigmine AUC0-∞ in data set [5] (intranasal, 4 mg (before dose adjustment)) of 33.9 ng·h/mL. Further, in [5] (intranasal, 33.9×3/4), the “geometric mean rivastigmine AUC0-∞ adjusted to an equivalent 3 mg dose” value came out at 25.4 ng·h/mL. In addition, in [5] (listed as Mean (value marked a = median), 3 mg oral capsule (Exelon), n=16), the “t1/2, OR” value is on record as 1.1^a h. Further, the “t1/2, NS” value in data set [5] (listed as Mean, 4 mg rivastigmine nasal spray, n=16) is 176 min. Also, in data set [5] (setting [9]), the “AUC (0, ∞)OR” value came to 19.6 ng·h/mL; the “FI, OR (Fluctuation Index)” value is recorded as 3.8; the “tmax, OR” value turned out to be 72 min. Besides, in data set [5] (setting [10]), the “AUC (0, ∞)NS” value is 41.1 ng·h/mL; the “FI, NS (Fluctuation Index)” value came out at 5.3; the “tmax, NS” value amounted to 42 min. Besides, the “Cmax, OR” value in data set [5] (mean, plasma, 3 mg oral capsule (Exelon), single dose, healthy young adult men n=16) came out at 8.4 ng/mL. For the same compound, the “Cmax, NS” value in data set [5] (mean, plasma, 4 mg rivastigmine nasal spray (one spray each nostril), single dose, healthy young adult men n=16) stood at 13.8 ng/mL. Moreover, in data set [5] (setting [11]), the “AUC (0, ∞)OR Min-max” value fell in the range of 1.7 to 51.0 ng·h/mL; the “FI, OR Min-max” value is 2.4-6.3; the “t1/2, OR Min-max” value was in the range of 48 to 132 min; the “tmax, OR Min-max” value is 30 to 120 min. In addition, in data set [5] (setting [12]), the “AUC (0, ∞)NS Min-max” value was 8.7 to 106.8 ng·h/mL; the “FI, NS Min-max” value was 3.0-8.5; the “t1/2, NS Min-max” value was in the range of 78 to 474 min; the “tmax, NS Min-max” value lay in the range of 18 to 90 min. For the same compound, in data set [5] (min-max, plasma, 3 mg oral capsule (Exelon), n=16), the “Cmax, OR Min-max” value lay in the range of 1.1 to 26.8 ng/mL. Moreover, the “Cmax, NS Min-max” value in [5] (min-max, plasma, 4 mg rivastigmine nasal spray, n=16) lay in the range of 3.1 to 49.0 ng/mL. Further, in data set [5] (setting [13]), the “mean (±SD) Tmax” value was 72 ± 30 min and the “mean Cmax” value was determined as 8.4 ± 6.8 ng/mL. For the same compound, in [5] (oral, 3 mg), the “geometric mean rivastigmine AUC0-∞” value stood at 13.2 ng·h/mL. Also, the “maximal inhibition of plasma BuChE” value at plasma BuChE (expected at intranasal plasma rivastigmine Cmax of at least 7.5 ng/ml, healthy males, from FIG. 3 (Lefèvre et al., 2009 data)) was “about 40%”. In addition, the “average plasma BuChE inhibition” value at plasma BuChE (setting [7]) is “about 26%”. In data set [6], the “rivastigmine plasma to CSF partition coefficient (PC)” value is 0.398. Also, the “time the carbamyl moiety remains bound to AChE” value at AChE is “about 8.5 h”. Also, the half-life in data set [2] (humans) is 60 to 120 min. Moreover, the absolute oral bioavailability entry in data set [2] (oral, dose of 3 mg, Hossain et al., 2002) is given as “about 35%”. Also, the “median FI (fluctuation index)” value in data set [2] (transdermal patch, Kurz et al. 2009, Lefevre et al. 2008) was 0.7.
